5 compounds from PubChem BioAssay AID2316 (Broad Institute, 2010) can be followed below.

Molecules are shown by their SMILES. The entries are a selection whose mix differs from that of the whole data set. Some salts or complexes appear as unconnected parts, following the source record. Active and inactive are the calls of the source. How the calls were made is not given here.

The assay can be described thus: activators reversing PD-1 mediated T-cell inhibition, primary screen, luminescence, primary human CD4 T cells, PD-L1 beads (AID 2316).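 Further: 0% = median vehicle wells and 100% = positive control.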 The following applies: CellTiter-Glo 96 h, stronger effect = higher value.
Turning to `COc1cc2c(cc1NP(C)(=O)Oc1ccccc1)oc1ccccc12` (stereo not given), the activation was inactive: -0.934%. The same measure for `C/C1=C2N=C(/C=C3N=C(/C(C)=C4\[N-][C@@](C)([C@@H]5N=C1[C@](C)(CCC(=O)NCC(C)OP(=O)(O)O[C@@H]1[C@H](O)[C@H](n6cnc7cc(C)c(C)cc76)O[C@H]1CO)[C@H]5CC(N)=O)[C@@](C)(CC(N)=O)[C@@H]4CCC(N)=O)[C@@](C)(CC(N)=O)[C@@H]\3CCC(N)=O)C(C)(C)[C@@H]/2CCC(N)=O.[C-]#N.[Co+3]` (stereo not given in full): inactive: -0.161%. Take `O=P1(Nc2ccccn2)COc2ccccc2OC1`: the activation is inactive: 0.374%.

Consider `Cc1ccc(C(=O)OC2CN3CCC2CC3)cc1` (stereo not given), for which the activation is inactive: 1.12%.

Consider `O=C(OC1CN2CCC1CC2)c1ccc(Cl)cc1` (stereo not given), for which the activation was inactive: 1.37%.
